{"source": "patent US20050260158A1", "about": "“Human stem cell materials and methods” (priority 2003, published 2005)", "key": {"MDSC cultures": {"tested_on": "MDSC cultures", "experiment": "IL-2-induced T-lymphocyte differentiation of MDSC cultures", "type": "cell-based, human", "conditions": "1200 units/ml IL-2, 4 days", "description": "(§1) To determine whether the MDSCs could also be induced to mature along another blood lineage, the ability of IL-2 to induce T-lymphocyte differentiation was tested. Treatment of four MDSC cultures with 1200 units/ml IL-2 for 4 days induced the cells to acquire a round morphology. […] Press, New York 1995). The IL-2-induced cells also acquired an increased ability to kill target cells, a functional marker for cytotoxic/suppressor T-lymphocytes. Using a 5:1 effector to target cell ratio, the IL-2-induced lymphocytes lysed 35±7% of the target cells compared to 12±3% by control cells."}, "target cells": {"tested_on": "target cells", "experiment": "Killing of target cells by IL-2-induced lymphocytes", "type": "cell-based, human", "conditions": "5:1 effector to target cell ratio", "description": "as §1"}, "[1]": {"tested_on": "MDSC colonies Clone 1 and Clone 2", "conditions": "1200 units/ml IL-2, seven days", "description": "To determine whether progeny of colonies derived from single MDSCs can be induced to differentiate into distinct cell lineages, cells from a five-day, 50 ng/ml, M-CSF-treated culture enriched to contain 99.97% peripheral blood monocytes were inoculated into 12 U-bottom tissue culture plates, 96 wells each, at 0.8 cells/well in 0.1-0.2 ml growth medium. The cells were then incubated in the presence of 50 ng/ml M-CSF and 1,000 units/ml LIF for 15-20 days. Additionally, one plate was incubated with 25% conditioned medium from a five-day, 50 ng/ml, M-CSF treated culture. […] The few wells that contained more than one cell were excluded from further experimentation. Medium was replaced every 5-7 days.\nAt 45-52 days, these cells were dispersed by forceful pipetting, without lidocaine, into flat-bottom, 96-well, tissue culture plates. […] Two colonies of MDSCs, each of which had arisen from a single cell, were chosen for further differentiation experiments and were termed Clone 1 and Clone 2. […] These antibodies separately recognized cell-surface markers that included the T lymphocyte marker CD3, the epithelial marker keratin, the endothelial marker vWF, the neuronal marker MAP1-B, and the hepatocyte marker AFP."}}, "note": "Read-outs that look alike come from different tables or passages of the source.", "data": [{"substance": "IL-2: human recombinant interleukin-2, T-cell inducing agent", "values": [{"measurement": "CD3-positive cells also displaying CD8", "setting": "MDSC cultures", "value": "Roughly 75%"}, {"measurement": "cells exhibiting CD4", "setting": "MDSC cultures", "value": "Less than 3%"}, {"measurement": "treated cells expressing CD3", "setting": "MDSC cultures", "value": "about 90%"}, {"measurement": "target cells lysed", "setting": "target cells", "value": "35±7", "unit": "%"}, {"measurement": "Immunostained cells (%), CD3 (Lymphocyte)", "setting": "[1]; Clone 1", "value": 75, "unit": "%"}, {"measurement": "Immunostained cells (%), CD3 (Lymphocyte)", "setting": "[1]; Clone 2", "value": 81, "unit": "%"}]}]}
